Experimental data from patent US11890324B2, “Compounds for use in inducing myocardial perfusion recovery” (Epoqe Pharma ApS, priority 2018, dated 2024).

What was measured:
Type in all cases: cell-based, rat
[1] = system: mesenteric artery segments; assay: CGRP-agonist sensibilization: repeated dose-response and artery culture, mesenteric artery; conditions: isolated mesenteric artery
Description: (§1) All experiments were conducted as described in Example 2 with the following modifications: • Effect of repeated dose-response: A second cumulative dose-response curves were conducted 90-120 minutes after completion of the first COMPOUND I or CGRP dose-response curve. • Effect of artery culture: After dissection, artery segments were cultured (DMEM supplemented with penicillin and streptomycin) for 24 h at 37° C.±Compound I (10 nM) for 24 h. Artery segments were divided for comparison of the effect of Compound I and CGRP in fresh and cultured artery segments, respectively.

[2] = system: coronary (left anterior descending artery, LAD) artery segments; assay: Vasodilation of isolated precontracted artery segments (wire myograph), coronary artery; conditions: coronary versus mesenteric and basilar artery
Description: Basilar, mesenteric and coronary arteries were isolated immediately and ring artery segments were stored in ice cold PSS buffer before being mounted on 40 μm stainless steel wires in a Multi Wire Myograph System organ bath (model 610M, Danish Myo Technology A/S, Denmark). Each segment was immersed in 37° C. PSS solution, continuously aerated with 5% CO2/95% O2 to maintain pH 7.4. […] One wire was connected to a micrometer screw enabling adjustments of the distance between the wires. […]
Measurements of vascular tone were recorded using the data acquisition hardware Power Lab unit (ADInstruments). […]
Vasodilation is expressed as percentage of the remaining precontraction tone induced by PGF2α. […] Active tension was determined by subtracting the passive tension (resting tension in PSS) from the total tension (during KPSS or PGF2α challenge).
All pharmacological data were analysed using Prism 7.02 (GraphPad Software Inc., San Diego, CA) and given as mean±S.E.M. For all analyses, the data were unweighted and each y value (mean of replicates for each individual experiment) was considered an individual point. […]
Differences in pEC50 and Emax values were analysed with paired (animal) t-tests and considered significant as P<0.05. […]

[3] = system: coronary LAD artery segments; assay: CGRP-agonist sensibilization: repeated dose-response and artery culture, coronary LAD; conditions: second dose-response curve 90-120 minutes after the first
Description: as §1

Question: Which results are given for “CGRP: human αCGRP (Bachem H-1470), native calcitonin gene-related peptide, vasoactive substance [reference compound]”?
Answer: CGRP-agonist-induced CGRP sensibilization (in words) [1]: no CGRP-agonist-induced CGRP sensibilization; CGRP potency lower in coronary artery than mesenteric and basilar [2]: 10 fold; Effect of repeated cumulative stimulation on potency (in words) [3]: shift in potency towards significant sensitization
